## scFv variants of Ab-14 (heavy chain) against a SARS-CoV-2 spike peptide

Target: peptide PDVDLGDISGINAS, taken from heptad repeat 2 (HR2) of SARS-CoV-2 spike.

Each scFv is VH, three GGGGS repeats, VL, as in the parent Ab-14, and differs from it in the CDRs of the heavy chain only.
VH: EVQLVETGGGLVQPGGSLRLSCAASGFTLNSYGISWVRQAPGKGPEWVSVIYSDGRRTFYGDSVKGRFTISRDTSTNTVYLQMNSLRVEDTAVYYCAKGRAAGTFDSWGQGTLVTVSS
VL: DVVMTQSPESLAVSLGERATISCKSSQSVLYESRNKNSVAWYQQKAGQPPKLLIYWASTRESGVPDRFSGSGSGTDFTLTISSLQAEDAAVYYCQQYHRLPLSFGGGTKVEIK

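The parent was found by panning a naive human phage display library on the peptide. The variants were designed computationally from a first round of random CDR variants and then made and measured. Several design methods are mixed in this list. The scFvs were displayed on barcoded MATa yeast, the peptide on MATalpha yeast. Binding brings cells together so that they mate, and sequencing counts the barcode pairs among the diploids. Each replicate has its own calibration line, from reference interactions of the BCL2 family. Each pool was mated in six replicate cultures.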

Each variant is given by its three heavy chain CDRs, as the data file delimits them; those of the parent are GFTLNSYGIS, VIYSDGRRTFYGDSVK, GRAAGTFDS.
This list holds designs with more than six substitutions.
Numbers give log10(Kd / nM), so 0 is 1 nM and 3 is 1 µM. Smaller is tighter.
Replicates are averaged; those with no signal do not enter the mean.
Where no diploid with the target was found in any replicate, the entry reads "nd": below detection, most likely a poor binder, though not proof of it.
Empty control strains, which show no peptide, gave a signal in 1% of pairings with all heavy chain designs; the median was 2.08 and 95% of these signals were weaker than 0.84. No background was subtracted.
The authors averaged sequences with at least three values out of six and counted those with two or fewer as poor binders.
A sequence measured in both rounds can read differently, since the two assays cover different ranges.

| CDR-H1 | CDR-H2 | CDR-H3 | log10 Kd (nM), mean | seen in |
|---|---|---|---|---|
| GFDIEEFGIS | VIYADGIRAAYAQKVK | GTIAGTFVD | 0.76 | 6/6 |
| GFDLNEYGIS | VIYADGRRTFYIDSVK | GTNAGTFDA | -1.04 | 6/6 |
| GFDLNEYGIS | VIYADGMRTFYADDVK | GEVAGTFDI | -1.18 | 6/6 |
| GFDLDEYGIS | VIYADGQRTAYADSVK | GNNAGTFDI | -0.90 | 6/6 |
| GFALNEYGIS | VIYADGFRKAYINSVK | GVLNMDVNV | nd | 0/6 |
| GFDLNEYGIS | VIYADGMRTFYTDSVK | GNAAGTFLV | 0.13 | 6/6 |
| GFDLNEYGIS | VIYADGRRTFYSDSVK | GQNGGTFDI | -0.58 | 5/6 |
| GFTLDSYGNS | VIYSDMRTKFYGDSVK | GRAAGTALT | nd | 0/6 |
| GFDLNEYGVS | VIYADGIRTAYADSFK | GDVGVALFQ | nd | 0/6 |
| GFSLDEFGIS | VIYADGMRTAYSQDVK | GQHVGFTVS | nd | 0/6 |
| GFQLDEYGIS | VIYADGKRTFYADSVK | GEVAGTFDV | -0.40 | 6/6 |
| GFDLDEYGIS | VIYADGMRTFYADDVK | GENAGTFDL | -0.52 | 6/6 |
| GFDLDEYGIS | VIYADGMRTAYADKVK | GQNAGTFDV | -0.84 | 6/6 |
| GFDLESYGIS | VIYADGRRTFYSDSVK | GENAGTFDI | -0.25 | 6/6 |
| GFDLEDYGIS | VIYADGRRTAYTDSVK | GEVAGTFDV | -0.40 | 6/6 |
| GFDLNEYGIS | VIYADGMRTVYADSVK | GEAAGTFDS | -0.33 | 6/6 |
| GFDLNEYGIS | VIYADGLRTSYADSVK | GENAGTFDQ | -0.61 | 6/6 |
| GFDLNEYGIS | VIYADGMRTAYIDSVK | GTNAGTFDV | 1.07 | 6/6 |
| GFNLDEYGIS | VIYADGMRTAYADSVK | GNQAGTFDV | -0.22 | 6/6 |
| GFDLNEYGIS | VIYADGRRQMYANPVK | GHMGGMKLT | nd | 0/6 |
| GFDLNEYGIS | VIYADGRRKFYADSVK | GQLAGTFDV | -0.11 | 6/6 |
| GFDLNEYGIS | VIYADGMRTVYTDSVK | GNVAGTFDV | -0.43 | 6/6 |
| GFDLNEYGIS | VIYADGRRTAYADSVK | GKAAGTFDQ | 0.19 | 6/6 |
| GFDLNEYGIS | VIYADGKRTAYSDSVK | GQVAGTFDV | -0.69 | 6/6 |
| GFNLNEYGIS | VIYADGRRTFYADSVK | GEIAGTFDK | -0.79 | 6/6 |
| GFQLDEYGIS | VIYADGVRSSYVDSVK | GEITGAFSE | nd | 0/6 |
| GFNIQDYGIS | VIYADGSRTAYAEPVK | GNIGGTIST | nd | 0/6 |
| GFDLNEYGIS | VIYADGMRTAYADDVK | GNEAGTFDL | -0.30 | 5/6 |
| GFNFDEYGIS | VIYADGKRKAYSDSVK | GYSSGTMEV | nd | 0/6 |
| GFDLNEYGIS | VIYADGRRTFYSDSVK | GTNAGTFDI | -0.26 | 6/6 |
| GNTIDEYGIS | VIYADGSRVAYDDKFK | GMLVGTFDQ | nd | 0/6 |
| GDSLDEYGIS | VIYADGQRKAYMDNVK | GNGQGTLFD | 1.54 | 1/6 |
| GFDIDEYGIS | VIYADGRRSFYADSVK | GTNAGTFDI | 0.33 | 6/6 |
| GFDLDEYGIS | VIYADGMRTFYADSVK | GNEAGTFDS | 0.25 | 6/6 |
| GFDLDEYGIS | VIYADGMRTFYADSVK | GNTAGTFLS | -0.14 | 6/6 |
| GFDLNEYGIS | VIYADGSRTVYSDSVK | GNQAGTFDV | -0.41 | 6/6 |
| GFDLEEYGIS | VIYADGMRNAYTANVK | GGKSEDFFM | nd | 0/6 |
| GFDLNEYGIS | VIYADGVRTAYADDVK | GNTAGTFDL | -0.36 | 6/6 |
| GFNLDSYGIS | VIYSDGRRTAYHDSVK | GRAAVNFDV | nd | 0/6 |
| GFDLNEYGIS | VIYADGMRTAYADDVK | GKNAGTFDI | -0.62 | 6/6 |
| GFKLNEYGIS | VIYADGKRTAYADEVK | GGGTTDRDV | nd | 0/6 |
| GFSLDEYGIS | VIYADGMRTAYSDSVK | GNVAGTFDV | -0.59 | 6/6 |
| GFDLEDYGIS | VIYADGRRTFYADSVK | GNVAGTFDI | -0.54 | 6/6 |
| GFPQNEYQIS | VIYADGRRTFYGDSVK | GGAAGTNKS | nd | 0/6 |
| GFDLNEYGIS | VIYADGKRTAYADNVK | GQTAGTFDV | -1.28 | 6/6 |
| GFDLDEYGIS | VIYADGKRTVYADSVK | GENAGTFDI | -1.09 | 5/6 |
| GFDLDEYGIS | VIYADGMRTAYADNVK | GEVAGTFDM | 0.08 | 6/6 |
| GFDLNEYGIS | VIYADGMRTAYSDSVK | GEIAGTFDQ | -0.47 | 6/6 |
| GFDLNEYGIS | VIYADGIRTAYSKKVK | GMDGIVILF | nd | 0/6 |
| GFNLNEYGIS | VIYADGVRTFYADSVK | GEHAGSFDI | -0.29 | 6/6 |
| GFDLNEYGIS | VIYADGMRTAYSDSVK | GNLAGTFDS | -0.42 | 6/6 |
| GFDIEEYGIS | VIYADGIRQAYKDSVK | GWNVGRFSV | nd | 0/6 |
| GFDLNEYGIS | VIYADGKRTAYANDVK | GEVAGTFDL | -0.49 | 6/6 |
| GFDLNEYGIS | VIYADGSRTVYADSVK | GEVAGTFDV | 0.18 | 6/6 |
| GFDLGEYGIS | VIYADGTRTAYVTKVK | GTIAGMFFL | nd | 0/6 |
| GFALNEYGIS | VIYADGFRRSYIDKVK | GHIAGEFSV | nd | 0/6 |
| GFDIEEYGIS | VIYADGMRTVYSDSFK | SGRTFNIDL | nd | 0/6 |
| GFDLDEYGIS | VIYADGMRTYYADSVK | GTNAGTFDV | -0.86 | 3/6 |
| GFDLEEYGIS | VIYADGRRTAYADNVK | GMSGADLMF | 1.16 | 6/6 |
| GCTLCEDGIS | VIYSDGRRTFYPDSVK | GRFAQTFDS | nd | 0/6 |
| GFSIDEYGIS | VIYADGMRTAYVESVK | GTIDENITT | 2.54 | 1/6 |
| GFDLNEYGIS | VIYADGMRTAYIDSVK | GQNAGTFDV | -0.50 | 6/6 |
| GFDLDEYGIS | VIYADGLRTAYADSVK | GNVAGTFDV | -0.17 | 6/6 |
| GFDLNEYGIS | VIYADGMRTFYADSVK | GQNAGTFDF | -0.34 | 6/6 |
| GFDLNSYGIS | VIYSCGRMFFYGDGVK | GRAAGWFNS | nd | 0/6 |
| GFDLNEYGIS | VIYADGRRTFYADSVK | GNNAGTFDI | -0.19 | 6/6 |
| GFGLDEYGIS | VIYADGARKAYQNYFK | GGQAGTFVN | nd | 0/6 |
| GFDLNEYGIS | VIYADGRRKAYADDVK | GNVAGTFDV | -0.31 | 5/6 |
| GFDLNEYGIS | VIYADGMRTFYADSVK | GENAGTFDI | -2.18 | 6/6 |
| GFSLDEYGIS | VIYADGRRTFYTDDVK | GNVAGTFDS | -0.71 | 6/6 |
| GFDLNEYGIS | VIYADGVRTYYADSVK | GNQAGTFDV | 0.23 | 6/6 |
| GFDLNEYGIS | VIYADGMRTAYADSVK | GETAGTFDI | 0.26 | 6/6 |
| GFNLDEYGIS | VIYADGRRTFYADSVK | GEHGGTFDT | 0.11 | 6/6 |
| GFDLEEYGIS | VIYADGRRTFYSDSVK | GETAGTFDV | -0.18 | 6/6 |
| GFDLNEYGIS | VIYADGMRTAYTDSVK | GNQAGTFDI | -0.57 | 6/6 |
| GFDLDEYGIS | VIYADGKRSAYHDSFK | GQLNKVSIV | nd | 0/6 |
| GFSIDEYGIS | VIYADGVRTAVDPSVK | GQMAAIFDK | nd | 0/6 |
| GFDLEEYGIS | VIYADGRRTFYSDSVK | GEHAGTFDT | -0.37 | 6/6 |
| GFSLDEYGIS | VIYADGIRQHYSDQVK | GVVFGNVIF | nd | 0/6 |

Picked from the list: the 9 lowest averages where every replicate gave a value.

CDR-H1	CDR-H2	CDR-H3	log10 Kd (nM), mean	seen in
GFDLNEYGIS	VIYADGMRTFYADSVK	GENAGTFDI	-2.18	6/6
GFDLNEYGIS	VIYADGKRTAYADNVK	GQTAGTFDV	-1.28	6/6
GFDLNEYGIS	VIYADGMRTFYADDVK	GEVAGTFDI	-1.18	6/6
GFDLNEYGIS	VIYADGRRTFYIDSVK	GTNAGTFDA	-1.04	6/6
GFDLDEYGIS	VIYADGQRTAYADSVK	GNNAGTFDI	-0.90	6/6
GFDLDEYGIS	VIYADGMRTAYADKVK	GQNAGTFDV	-0.84	6/6
GFNLNEYGIS	VIYADGRRTFYADSVK	GEIAGTFDK	-0.79	6/6
GFSLDEYGIS	VIYADGRRTFYTDDVK	GNVAGTFDS	-0.71	6/6
GFDLNEYGIS	VIYADGKRTAYSDSVK	GQVAGTFDV	-0.69	6/6

From the AlphaSeq antibody data of Li et al. 2023 (doi:10.1038/s41467-023-39022-2), copy in the FLAb collection.